For test [1], the target named is T1, HDAC2 (Homo sapiens, UniProt Q92769). In words: HDAC2 inhibition, trypsin-coupled kinetic fluorescence homogeneous assay (Example 10). Format: biochemical. Particulars: read-out: X50.
A further test addresses HDAC1 (Homo sapiens, UniProt Q13547). In words: HDAC biochemical assay of P5-P12 (Table P1). The note with it: read-out: HDAC1 IC50.
Test [2] has as its target T1, HDAC2. The test is described as follows: HDAC biochemical assay of P5-P12 (Table P1). The note with it: read-out: HDAC2 IC50.
The target in another test is HDAC3 (Homo sapiens, UniProt O15379). In words: HDAC biochemical assay of P5-P12 (Table P1). Particulars: read-out: HDAC3 IC50.
The next test deals with T2, HDAC6 (Homo sapiens, UniProt Q9UBN7).
T2 sequence (Q9UBN7 1-1215): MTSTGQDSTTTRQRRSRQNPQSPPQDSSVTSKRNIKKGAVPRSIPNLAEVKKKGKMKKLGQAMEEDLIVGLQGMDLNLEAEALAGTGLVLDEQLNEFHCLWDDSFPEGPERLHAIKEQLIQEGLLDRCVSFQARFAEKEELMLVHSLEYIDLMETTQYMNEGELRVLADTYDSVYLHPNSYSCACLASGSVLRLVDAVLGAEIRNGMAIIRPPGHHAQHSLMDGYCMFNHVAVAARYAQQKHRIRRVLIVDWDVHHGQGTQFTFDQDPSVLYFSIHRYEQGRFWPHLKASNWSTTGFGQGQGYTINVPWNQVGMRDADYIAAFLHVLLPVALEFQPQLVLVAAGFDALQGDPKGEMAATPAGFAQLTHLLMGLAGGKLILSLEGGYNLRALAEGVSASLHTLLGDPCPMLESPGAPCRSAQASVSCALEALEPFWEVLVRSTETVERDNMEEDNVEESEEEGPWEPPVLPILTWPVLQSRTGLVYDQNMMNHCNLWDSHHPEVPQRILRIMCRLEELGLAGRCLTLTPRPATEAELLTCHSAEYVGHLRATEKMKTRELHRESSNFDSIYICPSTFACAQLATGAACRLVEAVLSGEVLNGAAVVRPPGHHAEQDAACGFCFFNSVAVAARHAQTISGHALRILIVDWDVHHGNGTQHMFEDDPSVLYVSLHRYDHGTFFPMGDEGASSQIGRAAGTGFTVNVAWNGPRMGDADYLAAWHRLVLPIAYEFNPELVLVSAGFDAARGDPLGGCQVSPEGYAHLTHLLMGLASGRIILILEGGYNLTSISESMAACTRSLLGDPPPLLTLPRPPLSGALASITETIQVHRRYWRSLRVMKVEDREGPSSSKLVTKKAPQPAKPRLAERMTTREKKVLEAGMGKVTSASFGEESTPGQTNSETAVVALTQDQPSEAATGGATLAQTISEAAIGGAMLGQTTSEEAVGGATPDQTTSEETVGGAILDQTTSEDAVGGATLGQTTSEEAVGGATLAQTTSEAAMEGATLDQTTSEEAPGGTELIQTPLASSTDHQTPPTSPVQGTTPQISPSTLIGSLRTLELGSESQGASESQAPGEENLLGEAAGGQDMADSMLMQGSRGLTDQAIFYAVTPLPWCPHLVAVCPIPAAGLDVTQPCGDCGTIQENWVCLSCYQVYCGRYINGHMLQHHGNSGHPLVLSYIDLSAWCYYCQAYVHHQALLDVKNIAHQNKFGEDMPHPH
In words: HDAC biochemical assay of P5-P12 (Table P1). The note with it: read-out: HDAC6 IC50, 200 μM TCEP.

Chains of the proteins cited; added tags and fusions are not shown. Lines headed by an entry give the natural chain unless they say otherwise; changes in a name come on top.
UniProt Q92769, whole entry: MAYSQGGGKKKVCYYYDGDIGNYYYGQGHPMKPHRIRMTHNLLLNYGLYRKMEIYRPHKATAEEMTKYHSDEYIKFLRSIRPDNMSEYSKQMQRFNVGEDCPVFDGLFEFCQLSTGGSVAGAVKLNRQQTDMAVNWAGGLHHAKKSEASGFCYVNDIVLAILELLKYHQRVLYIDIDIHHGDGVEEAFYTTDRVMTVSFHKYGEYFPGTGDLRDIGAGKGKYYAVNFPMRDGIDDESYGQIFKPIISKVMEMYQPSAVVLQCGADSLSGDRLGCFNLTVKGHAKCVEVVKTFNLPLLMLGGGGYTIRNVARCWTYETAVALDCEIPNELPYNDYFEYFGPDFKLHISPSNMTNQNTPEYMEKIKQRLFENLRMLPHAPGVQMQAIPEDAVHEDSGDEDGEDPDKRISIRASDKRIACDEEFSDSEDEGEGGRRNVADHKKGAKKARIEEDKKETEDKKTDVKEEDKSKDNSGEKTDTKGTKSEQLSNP
UniProt Q13547, whole entry: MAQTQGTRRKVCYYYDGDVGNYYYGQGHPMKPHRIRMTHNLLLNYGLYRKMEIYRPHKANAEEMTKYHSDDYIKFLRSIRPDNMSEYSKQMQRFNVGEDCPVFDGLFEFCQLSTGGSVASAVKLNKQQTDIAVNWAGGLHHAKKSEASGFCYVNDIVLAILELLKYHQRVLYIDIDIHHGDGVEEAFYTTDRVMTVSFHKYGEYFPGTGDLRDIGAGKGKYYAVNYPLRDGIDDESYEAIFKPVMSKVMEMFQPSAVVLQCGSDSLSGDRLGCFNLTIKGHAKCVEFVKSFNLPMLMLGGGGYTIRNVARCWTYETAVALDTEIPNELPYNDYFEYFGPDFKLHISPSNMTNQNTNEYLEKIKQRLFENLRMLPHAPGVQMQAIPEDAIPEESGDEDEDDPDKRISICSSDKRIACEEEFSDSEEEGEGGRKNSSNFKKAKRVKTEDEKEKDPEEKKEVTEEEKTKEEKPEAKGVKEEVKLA
UniProt O15379: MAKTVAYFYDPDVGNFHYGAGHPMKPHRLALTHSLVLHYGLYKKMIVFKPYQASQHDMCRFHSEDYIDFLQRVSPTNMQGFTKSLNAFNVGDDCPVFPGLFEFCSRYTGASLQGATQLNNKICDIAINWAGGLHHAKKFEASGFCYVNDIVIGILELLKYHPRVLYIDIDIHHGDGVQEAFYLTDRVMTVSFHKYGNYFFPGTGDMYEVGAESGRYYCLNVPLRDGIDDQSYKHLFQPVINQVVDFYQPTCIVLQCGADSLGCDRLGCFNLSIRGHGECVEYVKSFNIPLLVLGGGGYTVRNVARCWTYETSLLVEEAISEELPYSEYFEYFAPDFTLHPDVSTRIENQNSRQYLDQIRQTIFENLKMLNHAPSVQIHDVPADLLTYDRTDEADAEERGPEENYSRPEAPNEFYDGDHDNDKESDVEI

Molecules are shown by their SMILES.

In the case of `CC(C)[C@@H]1NC(=O)[C@]2(C)CSC(=N2)c2csc(n2)CNC(=O)C[C@@H](/C=C/CCS)NC1=O` [Largazole peptide isostere thiol], the IC50 at HDAC2 [1] worked out at 11.1 nM; on HDAC1, 1.95 nM; on HDAC2 [2] it was 3.38 nM; at HDAC3 it was 2.59 nM; at HDAC6 it was 102 nM.

(Values after patent US10676504B2 (Colorado State University Research Foundation, priority 2015, dated 2020).)
